Legend:
[1] = system: CHO-AA8; test: In vitro cytotoxicity against transformed chinese hamster fibroblast line AA8; format: functional, cell-based, Cricetulus griseus
[2] = system: P388; test: In vitro cytotoxicity against P388 murine leukemia; format: functional, cell-based, Mus musculus
[3] = system: P388; test: Optimal dose of drug administered as a single dose in 0.1 or 0.2 mL of 30% v/v ethanol/water on day one after ip inoculation of 10e6 P388 leukemia cells
[4] = system: UV4; test: In vitro cytotoxicity against transformed chinese hamster fibroblast line UV4.; format: functional, cell-based, Cricetulus griseus

## CN(C)C(=O)c1ccc(N(CCCl)CCCl)cc1
[1]
  IC50: 28000 nM
[2]
  IC50: 19200 nM
[3]
  OD: 65 mg/kg
[4]
  IC50: 1200 nM

## CC(=O)Nc1ccc(N(CCCl)CCCl)cc1
[1]
  IC50: 3100 nM
[2]
  IC50: 8200 nM
[3]
  OD: 65 mg/kg
[4]
  IC50: 100 nM

## CS(=O)(=O)c1ccc(N(CCCl)CCCl)cc1
[3]
  OD: 100 mg/kg
[4]
  IC50: 42000 nM

## Cc1ccc(N(CCCl)CCCl)cc1
[1]
  IC50: 3200 nM
[2]
  IC50: 410 nM
[4]
  IC50: 170 nM

## CSc1ccc(N(CCCl)CCCl)cc1
[1]
  IC50: 5300 nM
[2]
  IC50: 1470 nM
[4]
  IC50: 160 nM

## COc1ccc(N(CCCl)CCCl)cc1
[1]
  IC50: 2900 nM
[2]
  IC50: 630 nM
[4]
  IC50: 340 nM

## CC(=O)c1ccc(N(CCCl)CCCl)cc1
[1]
  IC50: > 40000 nM
[2]
  IC50: > 40000 nM
[3]
  OD: 45 mg/kg
[4]
  IC50: 5500 nM
